{"source": "paper PMC5938747", "test_system": "Nc1ccn([C@@H]2O[C@H](COP(=O)(O)OP(=O)(O)O)[C@@H](O)[C@H]2O)c(=O)n1", "experiment": "purified protein", "settings": "10 mM ATP, MgCl2 4 mM excess, pH 8.0, 25 °C", "data": [{"substance": "Cj1415 (cytidine diphosphoramidate kinase, CDK) (Campylobacter jejuni subsp. jejuni NCTC 11168 = ATCC 700819)", "values": [{"measurement": "kcat/Km", "value": "150 ± 30", "unit": "M⁻¹ s⁻¹"}]}]}
